The text below walks through data of ChEMBL document CHEMBL2413064, “Synthesis and α-glucosidase inhibitory activity evaluation of N-substituted aminomethyl-β-d-glucopyranosides” (Bioorg Med Chem, 2013).

The chains behind the UniProt entries cited, without tags or fusion partners. Residues count along the entry.
UniProt P23739, 1014-1841 limits assumed: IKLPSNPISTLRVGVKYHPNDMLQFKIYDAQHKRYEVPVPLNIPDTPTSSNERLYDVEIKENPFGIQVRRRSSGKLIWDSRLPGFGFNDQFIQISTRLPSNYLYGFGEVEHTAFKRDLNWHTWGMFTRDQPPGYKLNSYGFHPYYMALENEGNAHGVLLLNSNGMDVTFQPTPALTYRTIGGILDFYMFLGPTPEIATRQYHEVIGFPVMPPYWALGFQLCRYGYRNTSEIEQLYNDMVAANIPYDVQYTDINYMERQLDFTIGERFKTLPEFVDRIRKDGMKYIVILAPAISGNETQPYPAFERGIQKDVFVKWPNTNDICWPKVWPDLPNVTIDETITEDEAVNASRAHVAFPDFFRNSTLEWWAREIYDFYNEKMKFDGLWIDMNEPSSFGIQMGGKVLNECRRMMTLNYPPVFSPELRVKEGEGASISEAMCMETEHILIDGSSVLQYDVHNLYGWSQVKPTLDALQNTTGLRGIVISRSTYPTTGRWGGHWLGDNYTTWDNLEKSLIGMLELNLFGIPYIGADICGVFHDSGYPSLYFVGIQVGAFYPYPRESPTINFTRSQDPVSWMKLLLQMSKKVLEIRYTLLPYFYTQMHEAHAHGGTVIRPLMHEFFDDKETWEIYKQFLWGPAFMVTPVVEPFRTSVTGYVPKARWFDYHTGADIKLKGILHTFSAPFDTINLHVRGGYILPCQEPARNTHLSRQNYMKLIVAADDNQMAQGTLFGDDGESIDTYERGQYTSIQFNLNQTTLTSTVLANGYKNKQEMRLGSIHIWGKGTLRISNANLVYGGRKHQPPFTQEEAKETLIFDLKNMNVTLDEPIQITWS
UniProt P23739, 1-1013 limits assumed: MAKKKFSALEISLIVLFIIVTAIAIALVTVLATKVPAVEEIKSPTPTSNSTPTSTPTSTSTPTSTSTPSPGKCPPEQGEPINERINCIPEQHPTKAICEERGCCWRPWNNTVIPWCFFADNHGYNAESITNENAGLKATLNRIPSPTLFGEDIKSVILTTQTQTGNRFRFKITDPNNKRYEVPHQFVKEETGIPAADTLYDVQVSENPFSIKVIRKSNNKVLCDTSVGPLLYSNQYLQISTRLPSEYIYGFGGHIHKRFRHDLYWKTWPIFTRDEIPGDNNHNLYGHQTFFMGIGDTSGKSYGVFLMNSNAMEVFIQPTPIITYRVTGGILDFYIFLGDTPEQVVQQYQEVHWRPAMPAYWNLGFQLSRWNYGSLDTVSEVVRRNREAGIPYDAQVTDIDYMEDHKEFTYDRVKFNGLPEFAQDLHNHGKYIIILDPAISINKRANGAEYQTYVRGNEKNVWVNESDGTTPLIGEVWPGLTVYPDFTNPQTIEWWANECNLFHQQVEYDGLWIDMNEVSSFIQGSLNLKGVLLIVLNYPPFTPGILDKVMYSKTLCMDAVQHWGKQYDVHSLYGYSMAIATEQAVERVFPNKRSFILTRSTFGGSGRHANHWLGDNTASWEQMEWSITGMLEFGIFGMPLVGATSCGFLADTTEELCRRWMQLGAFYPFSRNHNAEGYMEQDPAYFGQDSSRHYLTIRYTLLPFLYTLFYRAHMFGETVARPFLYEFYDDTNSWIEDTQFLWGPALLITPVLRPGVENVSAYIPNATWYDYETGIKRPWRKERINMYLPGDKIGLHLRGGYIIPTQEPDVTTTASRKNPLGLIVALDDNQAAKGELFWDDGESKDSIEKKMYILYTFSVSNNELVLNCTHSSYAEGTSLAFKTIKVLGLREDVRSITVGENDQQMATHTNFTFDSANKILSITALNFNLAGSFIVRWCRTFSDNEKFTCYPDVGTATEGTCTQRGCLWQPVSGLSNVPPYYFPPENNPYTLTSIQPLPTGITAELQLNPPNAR

Molecules are shown by their SMILES.

The assay addresses Sucrase-isomaltase, intestinal (Rattus norvegicus, UniProt P23739). Kind of assay: Inhibition of rat intestinal sucrase using sucrose as substrate assessed as D-glucose release from substrate preincubated for 15 mins measured after 60 mins.

A word on the IC50: it is the concentration at which inhibition is half-maximal. For the compound `C[C@H]1O[C@H](O[C@H]2[C@H](O)[C@@H](O)[C@@H](O[C@H]3[C@H](O)[C@@H](O)C(O)O[C@@H]3CO)O[C@@H]2CO)[C@H](O)[C@@H](O)[C@@H]1N[C@H]1C=C(CO)[C@@H](O)[C@H](O)[C@H]1O` (stereo partly specified) [ACARBOSE], the IC50 turned out to be 400 nM.
